Earlier results as cited in patent US20190026423A1, “Cycle Closure Estimation of Relative Binding Affinities and Errors” (Schrödinger, LLC, priority 2013, published 2019).

Target: CDK2-cyclin A receptor (Homo sapiens, UniProt P24941)
Conditions: experimental binding free energy
[1] = 6 ligands with crystal structures
[2] = ligands without crystal structures

| Structure (SMILES) | ΔG(EXP) [1] | ΔG(EXP) [2] |
| --- | --- | --- |
| c1ccc(Nc2nc(OCC3CCCCC3)c3nc[nH]c3n2)cc1 [Compound 1h1q] | -8.18 kcal/mol |  |
| CS(=O)(=O)c1ccc(Nc2nc(OCC3CCCCC3)c3nc[nH]c3n2)cc1 [Compound 1h1s] | -11.25 kcal/mol |  |
| CNS(=O)(=O)c1ccc(Nc2nc(OCC3CCCCC3)c3nc[nH]c3n2)cc1 [Compound 28] |  | -11.11 kcal/mol |
| CS(=O)(=O)c1ccc(Nc2nc(OCC3CCCCC3)c3nc[nH]c3n2)cc1 [Compound 30] |  | -9.81 kcal/mol |
| C[S+]([O-])c1ccc(Nc2nc(OCC3CCCCC3)c3nc[nH]c3n2)cc1 (centres unmarked) [Compound 31] |  | -9.54 kcal/mol |

Like-named read-outs stand apart in the source and are kept apart here.
